Our source for the inhibition values is PubChem BioAssay AID743256 (The Scripps Research Institute Molecular Screening Center, 2014).

Chains of the proteins cited; added tags and fusions are not shown. Residues count along the entry.
UniProt O14672, 214-748 limits assumed: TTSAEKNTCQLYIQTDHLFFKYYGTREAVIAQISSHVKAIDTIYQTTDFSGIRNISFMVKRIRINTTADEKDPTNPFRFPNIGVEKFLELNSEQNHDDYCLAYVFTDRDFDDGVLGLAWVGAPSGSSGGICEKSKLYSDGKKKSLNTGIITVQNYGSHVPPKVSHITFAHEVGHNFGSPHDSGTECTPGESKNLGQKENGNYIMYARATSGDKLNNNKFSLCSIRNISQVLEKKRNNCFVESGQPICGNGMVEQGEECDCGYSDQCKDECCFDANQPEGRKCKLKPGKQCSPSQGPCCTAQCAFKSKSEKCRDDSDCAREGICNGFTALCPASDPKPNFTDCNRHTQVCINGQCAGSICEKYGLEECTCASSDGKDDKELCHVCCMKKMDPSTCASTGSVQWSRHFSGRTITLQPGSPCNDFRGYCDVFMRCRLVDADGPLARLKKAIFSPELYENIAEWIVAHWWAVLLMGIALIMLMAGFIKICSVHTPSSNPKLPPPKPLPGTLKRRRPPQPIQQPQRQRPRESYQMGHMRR

The entries are a selection whose mix differs from that of the whole data set. Active and inactive are the calls of the source.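 The calls were made as follows: active = mean inhibition over the triplicate runs exceeds the activity threshold set in the earlier primary screen (cut at about 20% in these data); inactive = the rest.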

The assay has as its target Disintegrin and metalloproteinase domain-containing protein 10 (Homo sapiens) (UniProt O14672). Nature of the assay: ADAM10 inhibitors, counter-screen for ADAM17 exosite inhibitor project, biochemical, FRET, human ADAM10 (AID 743256).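 Also: 0% = DMSO wells and 100% = marimastat wells.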 The conditions noted are these: recombinant ADAM10, EDANS/DABCYL FRET peptide cleavage, 3 h; at 6.95 µM; hits give high values. The gist of the method: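 Test system – ADAM10 · Amount – enzyme 2X stock at 20 nM · Read-out – percent inhibition scaled between DMSO and marimastat control wells · Compound dosing – one dose · Measured by – FRET fluorescence readout · Timing – Compound–enzyme preincubation 30 min, then 3 h substrate cleavage, both 25 °C · Control set – 1 µM marimastat (high) and DMSO (low)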
(In general: The purpose of a counterscreen is to sort out artefacts and off-target activity.)
As to `CC(C)(C)n1nnnc1C(c1cccc2ccccc12)N1CCC(n2c(=O)[nH]c3ccccc32)CC1` (stereo unspecified), the inhibition (as a rule, how much of the control response was suppressed) is active: 39.8%.
